Assays:
PARP7 = PARP7 (Homo sapiens, UniProt Q7Z3E1); assay: Test of inhibitory activity against PARP7 enzyme (PARP7 FLAG-tag, Probe A, time-resolved fluorescence); type: biochemical; details: read-out: Inhibitory activity against PARP7 enzyme IC50; PARP7 12 nM, Probe A 2 nM, 1 hr room temperature
NCI-H1373 cells = assay: Cell proliferation inhibition assay (CTG method); type: cell-based, human; details: read-out: IC50 (nM) for NCI-H1373 cell viability, 6 days incubation

Sequences of proteins named here, by UniProt entry; tags and fusion partners are left off.
UniProt Q7Z3E1, whole entry: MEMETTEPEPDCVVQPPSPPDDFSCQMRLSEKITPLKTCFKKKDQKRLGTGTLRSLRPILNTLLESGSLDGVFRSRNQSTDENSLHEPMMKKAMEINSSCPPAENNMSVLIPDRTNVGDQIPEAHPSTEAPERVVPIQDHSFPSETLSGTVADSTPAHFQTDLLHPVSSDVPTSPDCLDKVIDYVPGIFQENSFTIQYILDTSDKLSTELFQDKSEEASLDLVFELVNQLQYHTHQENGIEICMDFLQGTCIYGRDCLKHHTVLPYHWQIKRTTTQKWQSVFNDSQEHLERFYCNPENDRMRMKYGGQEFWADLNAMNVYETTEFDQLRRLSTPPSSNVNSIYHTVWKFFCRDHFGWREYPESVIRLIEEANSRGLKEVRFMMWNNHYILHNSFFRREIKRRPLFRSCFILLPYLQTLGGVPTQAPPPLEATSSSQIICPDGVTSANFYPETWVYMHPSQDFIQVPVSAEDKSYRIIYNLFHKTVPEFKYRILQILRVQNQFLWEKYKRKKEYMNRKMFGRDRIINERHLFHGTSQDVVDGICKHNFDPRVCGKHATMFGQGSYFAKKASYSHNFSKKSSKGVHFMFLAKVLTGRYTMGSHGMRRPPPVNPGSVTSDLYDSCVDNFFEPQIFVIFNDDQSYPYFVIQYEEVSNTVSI

In the case of `C[C@@H](COCCC(=O)N1CCN2c3ncc(C(F)(F)F)cc3C=C[C@@H]2C1)Nc1cn[nH]c(=O)c1C(F)(F)F`, the IC50 (PARP7) is reported as under 10 nM and the IC50 (NCI-H1373 cells) is reported as under 100 nM.

Reference: patent US20240166664A1, “TRIHETEROCYCLIC COMPOUND, PREPARATION METHOD THEREFOR, AND APPLICATION THEREOF” (SHANGHAI APEIRON THERAPEUTICS COMPANY LIMITED, priority 2021, published 2024)
